This note sets out measurements from PubChem BioAssay (EPA / NIEHS).

Chains of the proteins cited; added tags and fusions are not shown.
UniProt Q16656, whole entry: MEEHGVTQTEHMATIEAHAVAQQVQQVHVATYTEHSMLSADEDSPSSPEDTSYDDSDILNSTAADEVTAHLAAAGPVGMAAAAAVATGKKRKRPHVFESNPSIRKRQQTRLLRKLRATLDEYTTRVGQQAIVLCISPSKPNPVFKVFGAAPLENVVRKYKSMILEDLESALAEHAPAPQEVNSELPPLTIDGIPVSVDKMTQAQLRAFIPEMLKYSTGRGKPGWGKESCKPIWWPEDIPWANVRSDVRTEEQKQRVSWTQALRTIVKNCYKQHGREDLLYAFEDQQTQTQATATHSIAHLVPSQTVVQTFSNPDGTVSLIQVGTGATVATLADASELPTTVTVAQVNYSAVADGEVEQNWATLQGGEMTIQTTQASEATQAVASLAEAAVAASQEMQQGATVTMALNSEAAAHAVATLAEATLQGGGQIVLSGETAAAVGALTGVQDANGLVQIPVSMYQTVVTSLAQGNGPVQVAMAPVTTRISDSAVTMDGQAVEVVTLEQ
UniProt P01106, whole entry: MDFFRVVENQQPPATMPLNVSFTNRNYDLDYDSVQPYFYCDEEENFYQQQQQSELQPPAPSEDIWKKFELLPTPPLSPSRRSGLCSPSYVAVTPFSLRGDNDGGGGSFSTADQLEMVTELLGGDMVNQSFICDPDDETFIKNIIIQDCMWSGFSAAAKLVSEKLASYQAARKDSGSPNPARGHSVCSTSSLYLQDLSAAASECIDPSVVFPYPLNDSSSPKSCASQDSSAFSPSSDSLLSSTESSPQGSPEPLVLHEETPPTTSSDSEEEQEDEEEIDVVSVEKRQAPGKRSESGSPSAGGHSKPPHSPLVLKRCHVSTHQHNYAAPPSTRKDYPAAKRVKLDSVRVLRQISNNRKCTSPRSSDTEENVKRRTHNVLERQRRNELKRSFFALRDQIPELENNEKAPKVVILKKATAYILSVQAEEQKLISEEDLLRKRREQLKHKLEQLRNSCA
UniProt P04637, whole entry: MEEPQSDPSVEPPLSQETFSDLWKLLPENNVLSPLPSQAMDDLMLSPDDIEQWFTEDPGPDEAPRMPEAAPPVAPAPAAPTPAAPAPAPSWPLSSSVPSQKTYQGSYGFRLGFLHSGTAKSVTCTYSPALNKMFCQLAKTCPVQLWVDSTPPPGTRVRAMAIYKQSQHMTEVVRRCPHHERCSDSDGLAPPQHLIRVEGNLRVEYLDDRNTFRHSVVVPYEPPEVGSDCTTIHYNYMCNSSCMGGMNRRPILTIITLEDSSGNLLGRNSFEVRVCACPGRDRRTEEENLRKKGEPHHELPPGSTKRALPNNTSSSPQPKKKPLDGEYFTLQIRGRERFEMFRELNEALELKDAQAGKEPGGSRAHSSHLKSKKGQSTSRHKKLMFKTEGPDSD

Test [1] addresses Nuclear respiratory factor 1 (Homo sapiens) (UniProt Q16656). The test is described as follows: ATG_NRF1_CIS: Attagene CIS-FACTORIAL HepG2 Assay for human Nuclear Respiratory Factor 1 (NRF1) Orphan Gene (AID 2282987). The note with it: HepG2 NRF1 cis-element reporter, Attagene multiplex; actives raise or lower the signal. Summed up:
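HepG2 cells transiently transfected with multiple reporter transcription units under cis-regulatory promoter control, so endogenous transcription-factor activity is read. After 24 h compound exposure, reporter mRNA quantified by RT-PCR, fluorescent labelling, HpaI digestion and capillary electrophoresis; bidirectional fitting versus DMSO.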

Test [2] can be described thus: ATG_NFI_CIS: Attagene CIS-FACTORIAL HepG2 Assay for human Nuclear Factor I (NFI) (AID 2282989). The note with it: HepG2 cis-regulatory reporter, NFI response element transcription; actives raise or lower the signal. How it is done: (§1) ATG_CIS is a cell-based, multiplexed-readout assay that uses HepG2, a human liver cell line, with measurements taken at 24 hours after chemical dosing in a 24-well plate.ATG_NFI_CIS is one of 52 assay component(s) measured or calculated from the ATG_CIS assay. It is designed to make measurements of mRNA induction, a form of inducible reporter, as detected with fluorescence intensity signals by Reverse transcription polymerase chain reaction (RT-PCR) and Capillary electrophoresis technology.Data from the assay component ATG_NFI_CIS was analyzed into 1 assay endpoint. This assay endpoint, ATG_NFI_CIS, was analyzed with bidirectional fitting relative to DMSO as the negative control and baseline of activity. Using a type of inducible reporter, measures of mRNA for gain or loss-of-signal activity can be used to understand the reporter gene at the transcription factor-level as they relate to the gene NFIA. Furthermore, this assay endpoint can be referred to as a primary readout, because this assay has produced multiple assay endpoints where this one serves a reporter gene function. To generalize the intended target to other relatable targets, this assay endpoint is annotated to the dna binding intended target family, where the subfamily is nuclear factor I.
(§2) Human liver HepG2 cells are transiently transfected with multiple reporter transcription units (MRTUs) in 6-well plates using FuGene 6 reagent (Roche; 3 ml FuGene/1 mg DNA). The MRTU constructs are regulated by a cis-regulating element (promoter). […] A major difference between the CIS and TRANS system is that in CIS activities of endogenous TFs are measured, whereas the TRANS assay evaluates changes in activities of exogenous, chimeric NR-Gal4 proteins. […] At the end of 24 hour incubation, total RNA was isolated using TriZol reagent (Invitrogen). The isolated RNA is then reverse-transcribed using oligo(dT) primer and Mo-MLV reverse transcriptase (Invitrogen) with DNAse I (Ambion) treatment for 30 min. The one-tenth of the produced cDNA was amplified by PCR using Taq DNA polymerase (Invitrogen) and two reporter sequence-specific primers. The PCR products were fluorescently labeled by primer extension with 6-arboxyfluorescein (6-FAM) 5'-labeled reporter sequence-specific primer (2 min at 95 C, 20 s at 68 C and 10 min at 72 C) and these products were digested with 5U of HpaI (New England Biolabs) for 2h at 37 C. The fragments were purified using Qiaquick PCR columns (Qiagen), analyzed on an ABI 3130xL genetic analyzer (Applied Biosystems) with peak positions identified by using a set of X-rhodamine (ROX)-labeled MapMarker1000 molecular weight standards (BioVentures). The raw capillary electrophoresis data was processed using Attagraph software (Attagene).

The target in test [3] is Myc proto-oncogene protein (Homo sapiens) (UniProt P01106). The test is described as follows: ATG_Myc_CIS: Attagene CIS-FACTORIAL HepG2 Assay for human Myelocytomatosis (Myc) Proto-Oncogene Transcription Factor (AID 2282990). The following applies: HepG2, Attagene cis-reporter transcription factor activity; actives raise or lower the signal. How it is done: as §1, with “plate.ATG_Myc_CIS” for “plate.ATG_NFI_CIS”, “ATG_Myc_CIS” for “ATG_NFI_CIS”, “ATG_Myc_CIS,” for “ATG_NFI_CIS,”, “MYC.” for “NFIA.”, “basic helix-loop-helix leucine zipper.” for “nuclear factor I.”
as §2

Test [4] is described as follows: ATG_NF_kB_CIS: Attagene CIS-FACTORIAL HepG2 Assay for human Nuclear Factor Kappa B (NF-kB) (AID 2282991). The following applies: HepG2 Attagene cis-factorial NF-kB reporter mRNA; actives raise or lower the signal. Summed up: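 HepG2 cells transiently transfected with multiplexed cis-element reporter units measuring endogenous transcription factor activity; reporter mRNA read 24 h after dosing by RT-PCR, fluorescent labelling, HpaI digestion and capillary electrophoresis. Bidirectional fit against DMSO baseline.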

Test [5] is described as follows: ATG_NRF2_ARE_CIS: Attagene CIS-FACTORIAL HepG2 Assay for human Nuclear Factor Erythroid 2 Related Factor 2 (NFR2) response to Antioxidant Response Elements (ARE) (AID 2282992). The following applies: HepG2 Attagene ARE/NRF2 reporter, transcription factor activity; actives raise or lower the signal. The gist of the method: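 Multiplexed reporter mRNA profiling in HepG2 after a 24 h chemical exposure. Curves fitted in both directions relative to DMSO negative control.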

Test [6] in a line: ATG_Oct_MLP_CIS: Attagene CIS-FACTORIAL HepG2 Assay for human Octamer-Binding Transcription Factor (Oct) (AID 2282993). The note with it: HepG2 Attagene cis-factorial Oct reporter, mRNA; actives raise or lower the signal. The gist of the method:
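Readout is reporter transcript level from RT-PCR with fluorescent primer extension and capillary electrophoresis, fitted in both directions against DMSO. Transfected HepG2 reporter units report endogenous factor activity after 24 h dosing.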

Test [7] addresses Cellular tumor antigen p53 (Homo sapiens) (UniProt P04637). The test is described as follows: ATG_p53_CIS: Attagene CIS-FACTORIAL HepG2 Assay for human p53 Transcription Factor (AID 2282994). The note with it: HepG2 p53 cis-element reporter, Attagene mRNA; actives raise or lower the signal. Summed up: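 Multiplexed reporter mRNA assay in human HepG2 liver cells; cis-regulated units report endogenous factor activity. Values come from bidirectional curve fitting against DMSO negative control after 24 h treatment.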

The nature of test [8]: BSK_3C_TissueFactor: BioMAP Diversity Plus: 3C Assay for Tissue Factor Biomarker Activity (AID 2282997). The following applies: BioMAP 3C HUVEC, tissue factor biomarker readout; actives raise or lower the signal. As for the experimental part:
BSK_3C is a cell-based, multiplexed-readout assay that uses umbilical vein endothelium, a human vascular primary cell, with measurements taken at 24 hours after chemical dosing in a 96-well plate.BSK_3C_TissueFactor is an assay component measured in the BSK_3C assay. It measures Tissue Factor antibody related to regulation of gene expression using ELISA technology.Data from the assay component BSK_3C_TissueFactor was analyzed into 1 assay endpoint. This assay endpoint, BSK_3C_TissueFactor, was analyzed with bidirectional fitting relative to DMSO as the negative control and baseline of activity. […] Furthermore, this assay endpoint can be referred to as a primary readout, because this assay has produced multiple assay endpoints where this one serves a signaling function. […]
The levels of cell surface (or secreted, indicated by the prefix "s") biomarker endpoints were measured by ELISA. Overt cytotoxicity to cells in confluent adherent cultures (all systems other than the BT system) was assessed by measuring total protein levels using sulforhodamine B (SRB) staining in parallel cultures at the time of biomarker measurements, indicated as SRB endpoints. […] SRB was performed by staining cells with 0.1% SRB after fixation with 10% TCA and reading wells at 560 nm.Viability and proliferation of PBMC (T cells) was quantified by Alamar Blue reduction for the SAg and BT systems. […]

The nature of test [9]: BSK_3C_uPAR: BioMAP Diversity Plus: 3C Assay for Urokinase-type plasminogen activator receptor (uPAR) Biomarker Activity (AID 2282998). The note with it: BioMAP 3C HUVEC, uPAR biomarker ELISA; actives raise or lower the signal. The gist of the method:
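Cell-surface uPAR on HUVEC (3C system) read by ELISA at 24 h post-treatment, with DMSO as baseline and fitting in both directions. Parallel cultures stained with SRB to flag overt cytotoxicity.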

Test [10] in a line: BSK_3C_VCAM1: BioMAP Diversity Plus: 3C Assay for Vascular cell adhesion molecule 1 (VCAM1) Biomarker Activity (AID 2282999). The following applies: BioMAP 3C HUVEC, VCAM1 ELISA, cytokine-stimulated; actives raise or lower the signal. Summed up:
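Endothelial cells from human umbilical vein are treated with test chemical. At 24 h, VCAM-1 is measured by ELISA, and responses in either direction are fitted relative to DMSO.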
On the technique in general: In an ELISA, binding on a coated surface is turned into a signal by an enzyme label.

Each structure is given as a SMILES string. The list shows a part of the results, in another mix than the full data. Calls of active or inactive are those of the source. The calls were made as follows: active = hit-call score of the fitted dose curve at least 0.9, where 1 is the maximum; inactive = score below 0.9.

Consider `CCOP(=O)(Cl)Cl`, for which the result in test [1], in [2], in test [3], in test [4], in [5] and in test [6] was inactive. In addition, the compound was called inactive in test [7].

Regarding `CC(C)OP(OC(C)C)OC(C)C`, the call in test [1], in test [2], in test [3], in test [4], in test [5] and in test [6] was inactive. Also, the compound was called inactive in test [7], in [8], in [9] and in test [10].

Usually AC50 stands for the concentration at which the activity in the assay is half-maximal. Consider `O=[N+]([O-])c1ccccc1[N+](=O)[O-]`, for which the call in test [1], in [2], in [3], in test [4], in test [6] and in test [7] was inactive. In addition, the result in test [9] was inactive. Besides, the AC50 in [5] is active: 7.39 µM; in test [8] it was active: 17.9 µM; in test [10] it was active: 10.3 µM.

For `ClCCOP(OCCCl)OCCCl`, the compound was called inactive in test [1], in test [2], in test [3], in test [4], in test [5] and in test [6]. In [7], the result was inactive.

For the compound `ClCCNCCCl`, the call in test [1], in test [2], in [3], in [4], in test [5] and in test [6] was inactive. Moreover, the compound was called inactive in test [7].
